Test results published in patent US20240294626A1 (Novartis, published 2024).

Columns and labels:
Test in all cases: cell-based or functional assay
[1] = molecular target: Recombinant marmoset IL-1β (marmoset, UniProt U3E018 117-268)
Recombinant human IL-1β [2] = molecular target: T1, Recombinant human IL-1β (human, UniProt P01584 117-269)
Recombinant human IL-18 [3] = molecular target: T2, Recombinant human IL-18 (human, UniProt Q14116 37-193)
[4] = molecular target: T3, Recombinant marmoset IL-18 (marmoset, UniProt U3CWC9 37-190)
T3 sequence: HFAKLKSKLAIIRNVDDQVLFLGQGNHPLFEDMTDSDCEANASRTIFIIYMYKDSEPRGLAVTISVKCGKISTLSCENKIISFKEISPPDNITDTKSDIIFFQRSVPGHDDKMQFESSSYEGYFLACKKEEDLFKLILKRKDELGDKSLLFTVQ

Recombinant human IL-18 [5] = molecular target: T2, Recombinant human IL-18; remark: listed apart in the source
Recombinant human IL-1β [6] = molecular target: T1, Recombinant human IL-1β; remark: listed apart in the source

B1: bbmAb1 (bispecific antibody, human IgG1, kappa, lambda, L234A L235A)
heavy 1: not shown
light 1: not shown
heavy 2: not shown
light 2: EIVLTQSPDFQSVTPKEKVTITCRASQSIGSSLHWYQQKPDQSPKLLIKYASQSFSGVPSRFSGSGSGTDFTLTINSLEAEDAAAYYCHQSSSLPFTFGPGTKVDIKRTVAAPSVFIFPPSDEQLKSGTASVVCLLNNFYPREAKVQWKVDNALQSGNSQESVTEQDSKDSTYSLSSTLTLSKADYEKHKVYACEVTHQGLSSPVTKSFNRGEC
For B1, the “IC50, inhibition of IL-6 production in human dermal fibroblasts stimulated with recombinant marmoset IL-1β (18 pM), Exp. C” value [1] was 0.22 nM, the “IC50, inhibition of IL-6 production in marmoset dermal fibroblasts stimulated with recombinant marmoset IL-1β (18 pM), Exp. A” value [1] was 0.174 nM and the “IC50, inhibition of IL-6 production in marmoset dermal fibroblasts stimulated with recombinant marmoset IL-1β (18 pM), Exp. B” value [1] was 0.364 nM. For the same binder, the “IC50, inhibition of IL-6 production in human PBMC stimulated with recombinant human IL-1β (60 pM)” value (Recombinant human IL-1β [2]) was 1.35 nM, the “IC50, inhibition of IL-6 production in human dermal fibroblasts stimulated with recombinant human IL-1β (6 pM)” value (Recombinant human IL-1β [2]) was 0.136 nM and the “IC50, inhibition of IFNγ production in KG-1 cells stimulated with recombinant human IL-18 (3 nM) and human IL-12 (1 ng/ml)” value (Recombinant human IL-18 [3]) was 0.071 nM. For the same binder, the “IC50, inhibition of IFNγ production in human PBMC stimulated with recombinant human IL-18 (3 nM) and human IL-12 (1 ng/ml)” value (Recombinant human IL-18 [3]) was 0.87 nM, the “IC50, inhibition of IFNγ production in marmoset whole blood stimulated with recombinant marmoset IL-18 (1 nM) and human IL-12 (10 ng/ml)” value [4] was 10 nM and the “IC50, inhibition of SEAP in HEK Blue reporter cells stimulated simultaneously with IL-1β and IL-18 (one value for both cytokines)” value (Recombinant human IL-18 [5]) was 0.71 nM. For the same binder, the “IC50, inhibition of SEAP in HEK Blue reporter cells stimulated simultaneously with IL-1β and IL-18 (one value for both cytokines)” value (Recombinant human IL-1β [6]) was 0.71 nM.
